Reference: patent publication US20250195530A1, “POLQ INHIBITORS” (ASTRAZENECA AB, priority 2022, published 2025)

Protein sequences, listed by entry. Tags and fused reporters are not part of them. Residues count along the entry.
UniProt O75417, 1780-2590: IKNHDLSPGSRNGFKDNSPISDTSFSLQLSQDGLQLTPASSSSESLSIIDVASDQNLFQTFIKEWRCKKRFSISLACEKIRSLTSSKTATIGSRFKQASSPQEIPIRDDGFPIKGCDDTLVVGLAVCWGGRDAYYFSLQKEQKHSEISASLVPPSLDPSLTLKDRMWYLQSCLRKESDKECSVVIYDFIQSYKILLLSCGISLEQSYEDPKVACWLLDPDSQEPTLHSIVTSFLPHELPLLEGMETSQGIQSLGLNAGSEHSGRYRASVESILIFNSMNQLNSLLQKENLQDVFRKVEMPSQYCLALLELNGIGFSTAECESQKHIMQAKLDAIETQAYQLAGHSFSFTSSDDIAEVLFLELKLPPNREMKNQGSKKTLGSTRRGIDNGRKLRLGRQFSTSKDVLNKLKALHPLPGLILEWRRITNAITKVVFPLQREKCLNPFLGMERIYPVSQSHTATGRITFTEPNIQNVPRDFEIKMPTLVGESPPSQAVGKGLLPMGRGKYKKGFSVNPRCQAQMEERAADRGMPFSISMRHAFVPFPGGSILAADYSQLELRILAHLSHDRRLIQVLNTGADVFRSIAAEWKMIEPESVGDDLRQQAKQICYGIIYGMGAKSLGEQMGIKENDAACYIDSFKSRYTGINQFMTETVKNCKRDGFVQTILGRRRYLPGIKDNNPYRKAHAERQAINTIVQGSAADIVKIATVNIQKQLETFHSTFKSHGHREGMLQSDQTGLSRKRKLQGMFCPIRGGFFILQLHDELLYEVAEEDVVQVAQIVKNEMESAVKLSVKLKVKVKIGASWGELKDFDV

Target: isolated polymerase domain (I1780-V2590) of DNA polymerase theta (Polθ) (Homo sapiens (Human), UniProt O75417)

Row | SMILES | IC50 [nM]
1 | CC1(Oc2ncnc3c2nc(-c2ccc(OCCN4CCNCC4)cc2Cl)n3Cc2ncc(Cl)s2)CC1 [Example L6, 5-chloro-2-((8-(2-chloro-4-(2-(piperazin-1-yl)ethoxy)phenyl)-6-(1-methylcyclopropoxy)-9H-purin-9-yl)methyl)thiazole] | 3.16
2 | CN1CCN(CCOc2ccc(-c3nc4c(OC5(C)CC5)ncnc4n3Cc3ccccc3Cl)c(Cl)c2)CC1 [Example E1, 8-(2-chloro-4-(2-(4-methylpiperazin-1-yl)ethoxy)phenyl)-9-(2-chlorobenzyl)-6-(1-methylcyclopropoxy)-9H-purine] | 2.51
3 | CC1(Oc2ncnc3c2nc(-c2ccc(OCCN4CCNCC4)cc2Cl)n3Cc2cccc(Cl)c2)CC1 [Example J13, 8-(2-chloro-4-(2-(piperazin-1-yl)ethoxy)phenyl)-9-(3-chlorobenzyl)-6-(1-methylcyclopropoxy)-9H-purine] | 3.16
4 | C#CC1(Oc2ncnc3c2nc(-c2ccc(OCCN4CCNCC4)cc2Cl)n3Cc2ccccc2)CCC1 [Example Q3, 9-benzyl-8-(2-chloro-4-(2-(piperazin-1-yl)ethoxy)phenyl)-6-(1-ethynylcyclobutoxy)-9H-purine] | 3.16
5 | CC(C)Oc1ccc2c(c1)nc(-c1ccc(OCCCNC(=O)OC(C)(C)C)cc1Cl)n2Cc1ccccc1 [Example A2, Tert-butyl (3-(4-(1-benzyl-5-isopropoxy-1H-benzo[d]imidazol-2-yl)-3-chlorophenoxy)propyl)carbamate] | 12.6
6 | COc1ccc(Cl)cc1Cn1c(-c2cccc(O[C@H]3C[C@@H](C(=O)O)C3)c2Cl)nc2c(OC3(C)CC3)ncnc21 [Example 52, (1s,3s)-3-(2-chloro-3-(9-(5-chloro-2-methoxybenzyl)-6-(1-methylcyclopropoxy)-9H-purin-8-yl)phenoxy)cyclobutane-1-carboxylic acid] | 3.98
7 | Cc1cc(OCCN(C)C)ncc1-c1nc2c(OC3(C)CC3)ncnc2n1Cc1ccccc1 [Example G12, 2-((5-(9-benzyl-6-(1-methylcyclopropoxy)-9H-purin-8-yl)-4-methylpyridin-2-yl)oxy)-N,N-dimethylethan-1-amine] | 6.31
8 | COc1ncccc1-c1nc2c(OC3(C)CC3)ncnc2n1Cc1ccccc1 [Example N9, 9-benzyl-8-(2-methoxypyridin-3-yl)-6-(1-methylcyclopropoxy)-9H-purine] | 10
9 | C[C@@H]1CN(CCOc2ccc(-c3nc4c(OC5(C)CC5)ncnc4n3Cc3ccccc3)c(Cl)c2)CCN1 [Example R6, (R)-9-benzyl-8-(2-chloro-4-(2-(3-methylpiperazin-1-yl)ethoxy)phenyl)-6-(1-methylcyclopropoxy)-9H-purine] | 3.16
10 | CC1(Oc2ncnc3c2nc(-c2ccc(OC4CCNCC4)cc2Cl)n3Cc2ccccc2)CC1 [Example D33, 9-benzyl-8-(2-chloro-4-(piperidin-4-yloxy)phenyl)-6-(1-methylcyclopropoxy)-9H-purine] | 2.51
11 | CC1(Oc2ncnc3c2nc(-c2ccc(N4CC(N)C4)cc2Cl)n3Cc2ccccc2)CC1 [Example M1, 1-(4-(9-benzyl-6-(1-methylcyclopropoxy)-9H-purin-8-yl)-3-chlorophenyl)azetidin-3-amine] | 6.31
12 | CC1(Oc2ncnc3c2nc(-c2ccc(O[C@H]4CC[C@H](C(=O)O)CC4)cc2Cl)n3Cc2ccccc2C#N)CC1 [Example U19, (1r,4r)-4-(3-chloro-4-(9-(2-cyanobenzyl)-6-(1-methylcyclopropoxy)-9H-purin-8-yl)phenoxy)cyclohexane-1-carboxylic acid] | 5.01
13 | CC1(Oc2ncnc3c2nc(-c2ccc(OCCC(=O)O)cc2Cl)n3Cc2ccccc2)CC1 [Example H11, 3-(4-(9-benzyl-6-(1-methylcyclopropoxy)-9H-purin-8-yl)-3-chlorophenoxy)propanoic acid] | 5.01
14 | CC1(Oc2ncnc3c2nc(-c2ccc(OCCN4CCNCC4)cc2Cl)n3Cc2csc(Cl)n2)CC1 [Example L7, 2-chloro-4-((8-(2-chloro-4-(2-(piperazin-1-yl)ethoxy)phenyl)-6-(1-methylcyclopropoxy)-9H-purin-9-yl)methyl)thiazole] | 7.94
15 | CC1(Oc2ncnc3c2nc(-c2ccc(OCCNC(=O)CO)cc2Cl)n3Cc2ccccc2)CC1 [Example D26, N-(2-(4-(9-benzyl-6-(1-methylcyclopropoxy)-9H-purin-8-yl)-3-chlorophenoxy)ethyl)-2-hydroxyacetamide] | 5.01
16 | CC1(Oc2ncnc3c2nc(-c2cccc(O[C@H]4CC[C@H](C(=O)O)CC4)c2Cl)n3Cc2cc(Cl)ccc2C#N)CC1 [Example U85, (1r,4r)-4-(2-chloro-3-(9-(5-chloro-2-cyanobenzyl)-6-(1-methylcyclopropoxy)-9H-purin-8-yl)phenoxy)cyclohexane-1-carboxylic acid] | 3.98
17 | CC1(Oc2ncnc3c2nc(-c2ccc(OC4CNC4)cc2Cl)n3Cc2ccccc2)CC1 [Example D35, 8-(4-(azetidin-3-yloxy)-2-chlorophenyl)-9-benzyl-6-(1-methylcyclopropoxy)-9H-purine] | 3.98
18 | COc1ccc(Cl)cc1Cn1c(-c2cccc(O[C@H]3C[C@H](C(=O)O)C3)c2Cl)nc2c(OC3(C)CC3)ncnc21 [Example U51, (1r,3r)-3-(2-chloro-3-(9-(5-chloro-2-methoxybenzyl)-6-(1-methylcyclopropoxy)-9H-purin-8-yl)phenoxy)cyclobutane-1-carboxylic acid] | 6.31
19 | CC1(Oc2ncnc3c2nc(-c2ccc(OCCN4CCNCC4)cc2Cl)n3Cc2cscn2)CC1 [Example K2, 4-((8-(2-chloro-4-(2-(piperazin-1-yl)ethoxy)phenyl)-6-(1-methylcyclopropoxy)-9H-purin-9-yl)methyl)thiazole] | 12.6
20 | CC1(Oc2ncnc3c2nc(-c2ccc(OCCN4CC5(CC(O)C5)C4)cc2Cl)n3Cc2cc(Cl)ccn2)CC1 [Example R1, 2-(2-(3-chloro-4-(9-((4-chloropyridin-2-yl)methyl)-6-(1-methylcyclopropoxy)-9H-purin-8-yl)phenoxy)ethyl)-2-azaspiro[3.3]heptan-6-ol] | 2.51
21 | CC(=O)N1CC(Oc2ccc(-c3nc4c(OC5(C)CC5)ncnc4n3Cc3cc(C)ccn3)c(Cl)c2)C1 [Example 40, 1-(3-(3-Chloro-4-(6-(1-methylcyclopropoxy)-9-((4-methylpyridin-2-yl)methyl)-9H-purin-8-yl)phenoxy)azetidin-1-yl)ethan-1-one] | 10
22 | Clc1cccc(Cn2c(-c3ccc(OCCN4CCNCC4)cc3Cl)nc3c(OC4CC4)ncnc32)c1 [Example Q4, 8-(2-chloro-4-(2-(piperazin-1-yl)ethoxy)phenyl)-9-(3-chlorobenzyl)-6-cyclopropoxy-9H-purine] | 2
23 | Cc1cccc(Cn2c(-c3ccc(OCCN4CCNCC4)cc3Cl)nc3c(OC4(C)CC4)ncnc32)n1 [Example K7, 8-(2-chloro-4-(2-(piperazin-1-yl)ethoxy)phenyl)-6-(1-methylcyclopropoxy)-9-((6-methylpyridin-2-yl)methyl)-9H-purine] | 7.94
24 | CC1(Oc2ncnc3c2nc(-c2ccc(OCCN4CCNCC4=O)cc2Cl)n3Cc2ccccc2)CC1 [Example M5, 1-(2-(4-(9-benzyl-6-(1-methylcyclopropoxy)-9H-purin-8-yl)-3-chlorophenoxy)ethyl)piperazin-2-one] | 3.98
25 | Cc1cc(OCCCN)ncc1-c1nc2c(OC3(C)CC3)ncnc2n1Cc1ccccc1 [Example G9, 3-((5-(9-benzyl-6-(1-methylcyclopropoxy)-9H-purin-8-yl)-4-methylpyridin-2-yl)oxy)propan-1-amine] | 3.98
